Experimental data reported in PubChem BioAssay AID1285 (Columbia University Molecular Screening Center, 2008).
Only a part is listed here, and it is no random draw. Some of these compounds have results that are not shown, active ones among them. Active and inactive are the calls of the source.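 How the source made its calls: active means inhibition above a set limit, derived from the sample mean plus 3 SD (cut at about 45% in these data); inconclusive means one replicate passes the limit while the other fails; inactive means the rest.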

Experiment: APP 5'UTR translational reporter suppression – APP 5'UTR luciferase, SH-SY5Y cells, primary screen (AID 1285)
Details: SH-SY5Y APP 5'UTR-luciferase reporter, luminescence; at 2 µM; active compounds read high

Structure (SMILES) | inhibition
CN(C)c1cccc(C(=O)NCC2(N(C)C)CCCCC2)c1 | inactive: -35.3%
O=C(OC1CN2CCC1CC2)C(CO)(c1ccccc1)c1ccccc1 (centres undefined) | inactive: -11.9%
COc1cccc(C(=O)NCC2(N3CCCCC3)CCCCC2)c1 | inactive: -24.5%
CCN1CCCC(OC(=O)C2(O)c3ccccc3C=Cc3ccccc32)C1 (centres undefined) | inactive: 4.8%
C=CCN1CCN(CCOC(=O)C(O)(c2ccccc2)c2ccccc2)CC1 | inactive: -4.7%
CN(C)C1CCCC1OC(=O)C(O)(c1ccccc1)c1ccccc1 (centres undefined) | inactive: 15.9%
Cc1ccccc1C(=O)NCC1(N2CCCCC2)CCCCC1 | inactive: -2.9%
CC(C)N1C(=O)CC2(CCN(CCOC(=O)C(O)(c3ccccc3)c3ccccc3)CC2)C1=O | inactive: -3.3%
O=C(NCC1(N2CCCCC2)CCCCC1)c1cc([N+](=O)[O-])ccc1Cl | inactive: -13.2%
